Data taken from article PMC7723054.

How the values were obtained:
DHX36 (human) = test: pull-down, barcode microarray; settings: BG4/CIRBP/DHX36: 10 mM Tris-HCl pH 7.5, 100 mM KCl (or LiCl), 10% glycerol, 0.1 ug/uL BSA, 4 C, U1A/LIN28A/EIF3: 20 mM HEPES pH 7.5, 80 mM KCl, 20 mM NaCl
CIRBP (human) = test: pull-down, barcode microarray; settings: BG4/CIRBP/DHX36: 10 mM Tris-HCl pH 7.5, 100 mM KCl (or LiCl), 10% glycerol, 0.1 ug/uL BSA, 4 C, U1A/LIN28A/EIF3: 20 mM HEPES pH 7.5, 80 mM KCl, 20 mM NaCl
BG4 anti-G4 antibody Fab = test: pull-down, barcode microarray; settings: BG4/CIRBP/DHX36: 10 mM Tris-HCl pH 7.5, 100 mM KCl (or LiCl), 10% glycerol, 0.1 ug/uL BSA, 4 C, U1A/LIN28A/EIF3: 20 mM HEPES pH 7.5, 80 mM KCl, 20 mM NaCl
U1A [1] = target: T1, U1A (human, UniProt P09012 1-102); test: pull-down, barcode microarray; BG4/CIRBP/DHX36: 10 mM Tris-HCl pH 7.5, 100 mM KCl (or LiCl), 10% glycerol, 0.1 ug/uL BSA, 4 C; U1A/LIN28A/EIF3: 20 mM HEPES pH 7.5, 80 mM KCl, 20 mM NaCl, 10%
U1A [2] = target: T1, U1A; test: pull-down, barcode microarray; no significant score; BG4/CIRBP/DHX36: 10 mM Tris-HCl pH 7.5, 100 mM KCl (or LiCl), 10% glycerol, 0.1 ug/uL BSA, 4 C; U1A/LIN28A/EIF3: 20 mM HEPES pH 7.5, 80 mM KCl, 20 mM NaCl, 10%

Row | Molecule | binding signal (binding intensity) (DHX36 (human)) | binding signal (binding intensity) (CIRBP (human)) | binding signal (binding intensity) (BG4 anti-G4 antibody Fab) | binding result (U1A [1]) | binding result (U1A [2])
1 | G4_(UGGU)6 | 18.6 | – | – | – | –
2 | G4_(GGGUU)8 | 18.4 | 10.1 | 4.2 and 2.35 | – | –
3 | hsa-mir-5583-2 loop | – | – | 2.26 and 3.8 | – | –
4 | G4_(UGGU)8 | 19 | – | 2.08 and 3.9 | – | –
5 | G4_(GGGUU)6 | 17.5 | 9.62 | 2.17 and 3.88 | – | –
6 | hsa-mir-760 loop | – | 9.17 | – | – | –
7 | G4_(UGGGU)6 | 16.9 | 10.6 | – | – | –
8 | hsa-mir-5189 loop | – | 9.27 | – | – | –
9 | hsa-mir-4516 loop | – | 10.9 | – | – | –
10 | G4_(UGGGGU)8 | 17.8 | 11.3 | 4.29 and 2.11 | – | –
11 | hsa-mir-4296 loop | 15.8 | – | – | – | –
12 | G4_(UGGGU)8 | 16.9 | 9.24 | 2.06 and 4.01 | – | –
13 | G4_(GGGU)6 | 18.1 | – | – | – | –
14 | G4_(UGGGGU)6 | 18.3 | 10.1 | 2.26 and 4.04 | – | –
15 | G4_(GGGU)8 | 18 | 9.61 | 2.14 and 3.92 | – | –
16 | hsa-mir-6850 loop | 16.4 | 10.1 | – | – | –
17 | hsa-mir-4259 loop | – | – | 3.69 and 2.06 | – | –
18 | hsa-mir-577 loop | – | – | 2.44 and 3.9 | – | –
19 | r(GAA)16 | – | 16.3 | 2.35 and 4.03 | – | –
20 | GGUGUACGAAGUUUCAGCAUUGCACUCCGCUGAAGCUUCGUGCACC (structured_RNA) [U1A-binding aptamer] | – | – | – | binds | –
21 | GGUGUACGAAGUUUCAGCAUUACGGUCCGCUGAAGCUUCGUGCACC (structured_RNA) [U1A-binding aptamer defective mutant] | – | – | – | – | no binding

Several values for one entry are separate records, joined by “and”; a condition that tells them apart may be missing. Equal entries are not always repeated.
